In US9278954B2, “Pyrrolidine derivatives, pharmaceutical compositions and uses thereof” (Boehringer Ingelheim International GmbH, priority 2013, dated 2016):
Read-outs that look alike come from different tables or passages of the source.

Protein sequences, listed by entry. Tags and fused reporters are not part of them. Residues count along the entry.
UniProt O00763, 129-2458: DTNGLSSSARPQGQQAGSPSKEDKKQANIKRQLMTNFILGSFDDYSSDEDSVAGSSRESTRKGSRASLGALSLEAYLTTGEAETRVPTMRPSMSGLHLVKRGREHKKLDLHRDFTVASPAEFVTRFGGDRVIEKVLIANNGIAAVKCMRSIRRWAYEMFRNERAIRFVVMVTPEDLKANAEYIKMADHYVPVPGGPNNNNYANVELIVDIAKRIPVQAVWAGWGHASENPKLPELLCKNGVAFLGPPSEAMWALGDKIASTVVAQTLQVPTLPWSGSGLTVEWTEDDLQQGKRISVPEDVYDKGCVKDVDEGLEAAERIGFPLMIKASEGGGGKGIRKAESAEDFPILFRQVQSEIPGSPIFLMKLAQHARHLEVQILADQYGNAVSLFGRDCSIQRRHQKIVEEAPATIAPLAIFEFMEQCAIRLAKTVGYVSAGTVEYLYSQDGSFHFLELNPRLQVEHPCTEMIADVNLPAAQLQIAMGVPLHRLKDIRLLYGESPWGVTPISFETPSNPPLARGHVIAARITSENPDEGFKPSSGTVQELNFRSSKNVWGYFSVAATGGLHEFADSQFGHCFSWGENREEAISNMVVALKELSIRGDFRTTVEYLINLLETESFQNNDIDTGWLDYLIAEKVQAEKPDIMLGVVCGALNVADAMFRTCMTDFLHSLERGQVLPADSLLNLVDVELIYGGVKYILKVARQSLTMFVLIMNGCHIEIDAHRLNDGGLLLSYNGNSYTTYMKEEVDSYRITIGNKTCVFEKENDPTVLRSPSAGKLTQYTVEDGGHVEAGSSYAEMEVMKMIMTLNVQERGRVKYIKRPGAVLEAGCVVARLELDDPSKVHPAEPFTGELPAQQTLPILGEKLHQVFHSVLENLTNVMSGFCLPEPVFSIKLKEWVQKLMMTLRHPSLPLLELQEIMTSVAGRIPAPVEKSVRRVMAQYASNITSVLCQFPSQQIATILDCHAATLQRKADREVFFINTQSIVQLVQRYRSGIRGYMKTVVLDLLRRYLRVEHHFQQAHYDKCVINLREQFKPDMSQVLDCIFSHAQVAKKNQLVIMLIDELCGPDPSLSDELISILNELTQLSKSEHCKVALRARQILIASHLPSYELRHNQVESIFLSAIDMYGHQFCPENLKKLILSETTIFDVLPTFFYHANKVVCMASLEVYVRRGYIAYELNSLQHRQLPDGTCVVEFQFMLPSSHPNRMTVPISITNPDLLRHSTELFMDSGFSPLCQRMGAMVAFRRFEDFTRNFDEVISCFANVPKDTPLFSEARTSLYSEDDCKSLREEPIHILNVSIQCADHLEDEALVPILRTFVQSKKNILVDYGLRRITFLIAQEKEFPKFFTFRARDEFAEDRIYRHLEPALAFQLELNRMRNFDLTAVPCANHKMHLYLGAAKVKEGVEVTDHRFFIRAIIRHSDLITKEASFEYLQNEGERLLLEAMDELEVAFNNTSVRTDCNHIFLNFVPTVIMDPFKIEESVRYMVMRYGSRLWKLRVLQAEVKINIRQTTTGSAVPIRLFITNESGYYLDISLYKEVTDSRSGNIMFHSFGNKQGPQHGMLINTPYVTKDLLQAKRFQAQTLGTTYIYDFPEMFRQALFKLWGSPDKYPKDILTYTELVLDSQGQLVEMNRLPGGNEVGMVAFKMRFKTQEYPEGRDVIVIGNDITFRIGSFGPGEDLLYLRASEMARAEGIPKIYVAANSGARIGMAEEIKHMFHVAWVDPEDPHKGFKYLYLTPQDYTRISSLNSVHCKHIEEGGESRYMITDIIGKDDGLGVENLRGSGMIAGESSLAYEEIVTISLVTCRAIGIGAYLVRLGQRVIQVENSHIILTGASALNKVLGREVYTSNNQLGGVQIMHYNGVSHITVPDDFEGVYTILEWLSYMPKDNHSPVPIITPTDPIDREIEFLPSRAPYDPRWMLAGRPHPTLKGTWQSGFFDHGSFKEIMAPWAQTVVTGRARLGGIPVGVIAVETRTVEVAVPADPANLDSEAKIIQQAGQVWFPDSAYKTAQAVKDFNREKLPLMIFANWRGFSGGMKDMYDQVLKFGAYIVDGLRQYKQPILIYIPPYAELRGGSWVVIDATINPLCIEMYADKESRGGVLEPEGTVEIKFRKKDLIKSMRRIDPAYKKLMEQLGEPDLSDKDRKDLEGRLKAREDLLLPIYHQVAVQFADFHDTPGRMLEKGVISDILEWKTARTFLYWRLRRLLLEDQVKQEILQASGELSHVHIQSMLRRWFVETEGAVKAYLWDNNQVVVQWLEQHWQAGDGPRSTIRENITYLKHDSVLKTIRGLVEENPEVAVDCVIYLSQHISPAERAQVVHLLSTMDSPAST

Biological target: human ACC2 (Homo sapiens (Human), UniProt O00763)
Assay: ACC2 assay (spectrophotometric 384 well assay, NADH-linked kinetic method)
Assay type: biochemical
Description: Spectrophotometric 384 Well Assay
Malonyl CoA formation by acetyl CoA carboxylases is stoichometrically linked to the consumption of ATP. ACC2 activity is measured in a NADH-linked kinetic method measuring ADP generated during the ACC reaction using a coupled lactate dehydrogenase/pyruvate kinase reaction.
The protein is then expressed in insect cells using a baculoviral expression system. Protein purification is performed by anion exchange.
All compounds are dissolved in dimethyl sulfoxide (DMSO) to a concentration of 10 mM.
The enzymatic reaction is then started by addition of a mixture of NADH, acetyl
Coenzyme A (both […].) and ATP (500 uM f.c.). The decrease of the optical density (slope S) is then determined at 25° C. at a wavelength of 340 nm over 15 minutes in a spectrophotometric reader.
Each assay microtiter plate contains wells with vehicle instead of compound as controls for the non-inhibited enzyme (100% CTL; ‘HIGH’) and wells without acetyl-CoA as controls for non-specific NADH degradation (0% CTL; ‘LOW’).

[1] = hACC2 construct lacking the 128 N-terminal amino acids, 25° C., 340 nm over 15 minutes

Row | Compound | IC50 [nM] | IC50 [1] [nM]
1 | CC(C(=O)NC1CC1)c1ccc(O[C@@H]2CCN(c3ncnc(OCC(C)(C)O)c3Cl)C2)cc1 (stereo partly drawn) [Example 1.1, 2-(4-(1-[5-Chloro-6-(2-hydroxy-2-methyl-propoxy)-pyrimidin-4-yl]-(R)-pyrrolidin-3-yloxy)-phenyl)-N-cyclopropyl-propionamide] | 139 | –
2 | CC(C(N)=O)c1ccc(O[C@@H]2CCN(c3ncnc(OCC(C)(C)O)c3Cl)C2)cc1 (stereo partly shown) [Example 3.11] | – | 1010
3 | CC(C#N)NC(=O)C(C)c1ccc(O[C@@H]2CCN(c3ncnc(OCC(C)(C)O)c3Cl)C2)cc1 (stereo partly shown) [Example 3.13] | – | 1950
4 | CCCOc1ccc(N2CC[C@@H](Oc3ccc(C(C)C(=O)NCC)cc3)C2)cc1 (stereo partly shown) [Example 7.34] | – | 75
